The values below come from PubChem BioAssay AID1001 (Sanford-Burnham Center for Chemical Genomics, 2008).

The chains behind the UniProt entries cited, without tags or fusion partners. Where a name states a change or a piece, a line headed by the entry shows the natural chain unless it says otherwise.
UniProt P05186: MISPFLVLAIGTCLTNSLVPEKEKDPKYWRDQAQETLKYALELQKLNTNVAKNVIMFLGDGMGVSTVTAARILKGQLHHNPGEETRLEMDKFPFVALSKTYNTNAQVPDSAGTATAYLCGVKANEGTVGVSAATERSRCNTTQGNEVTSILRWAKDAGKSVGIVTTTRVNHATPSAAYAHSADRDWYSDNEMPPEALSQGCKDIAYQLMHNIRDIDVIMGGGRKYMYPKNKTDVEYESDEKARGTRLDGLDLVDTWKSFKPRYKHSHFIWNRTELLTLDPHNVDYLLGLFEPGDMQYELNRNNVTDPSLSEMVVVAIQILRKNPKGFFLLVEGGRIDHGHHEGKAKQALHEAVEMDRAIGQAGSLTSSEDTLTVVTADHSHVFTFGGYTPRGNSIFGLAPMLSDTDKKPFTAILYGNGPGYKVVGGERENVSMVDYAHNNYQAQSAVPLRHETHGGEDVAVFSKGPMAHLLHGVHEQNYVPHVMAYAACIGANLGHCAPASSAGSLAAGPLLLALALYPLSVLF

Structures are written as SMILES. Some of the results follow. Measured potencies and affinities stand elsewhere. Active and inactive are the calls of the source. The rule behind the calls is not given here.

In this assay the target is Alkaline phosphatase, tissue-nonspecific isozyme (Homo sapiens) (UniProt P05186). Briefly: stimulation of alkaline phosphatase TNAP activity – biochemical, luminescent, no phosphate acceptor, uHTS, primary screen (AID 1001). The settings on record: purified TNAP, luminescent activation assay, at 20 µM, hits give high values.
As to `COP1(=S)c2c(C)nn(CCC#N)c2N=C(c2ccc(F)cc2)N1C` (stereo unspecified), the activation fold was inactive: 1. In the case of `CCC(C)N(CC(C)C)C(=S)SC(NC(C)=O)C(Cl)(Cl)Cl` (stereo unspecified), the activation fold is inactive: 0.9. In the case of `Cc1cc(SC(NC(=O)c2ccccc2)C(Cl)(Cl)Cl)nc(C(C)C)n1` (stereo unspecified), the activation fold was inactive: 1.3. As to `Cc1cc(SC(NC=O)C(Cl)(Cl)Cl)ncn1` (stereo unspecified), the activation fold is inactive: 1. Turning to `O=[N+]([O-])c1cc([N+](=O)[O-])c(-c2ccn[nH]2)s1`, the activation fold was inactive: 0.9. In the case of `ClCCSc1nnc(-c2cccnc2)o1` it was inactive: 1; in that of `COc1ccc2nc(NP(=O)(c3ccccc3)c3ccccc3)sc2c1`, inactive: 1.2.

On to `Cc1c2c(nc3ccccc13)SC(C(Cl)Cl)C2` (stereo unspecified), for which the activation fold was inactive: 1. Turning to `Cc1cc(=O)[nH]c(N[N+](=O)[O-])n1`, the activation fold was inactive: 1. In the case of `COc1cc(C2NCCC3(OCCO3)C2(C)C)cc(OC)c1OC` (stereo unspecified) it was inactive: 1.2. For `CCOP(=O)(Nc1cccc2ccccc12)OCC`, the activation fold was inactive: 1.

Take `Cc1ccc(NCCc2c([N+](=O)[O-])cc([N+](=O)[O-])cc2[N+](=O)[O-])cc1`: the activation fold is inactive: 1. As for `O=P(Nc1nccs1)(Oc1ccccc1)Oc1ccccc1`, the activation fold was inactive: 1. For the molecule `CC1CCC(C(C)C)C(OP(=O)(Nc2ccccn2)c2ccccc2)C1` (stereo unspecified), the activation fold was inactive: 1.2. In the case of `O=P1(Nc2ncccn2)COc2ccccc2OC1` it was inactive: 0.9; in that of `O=P1(Nc2ccccn2)COc2ccccc2OC1`, inactive: 1. For the molecule `CC(C)/C=N\N=C(\N)N[N+](=O)[O-]`, the activation fold was inactive: 1. In the case of `CC(C)C(=O)NC(Sc1ccccc1)C(Cl)(Cl)Cl` (stereo unspecified) it was inactive: 1. In the case of `O=P(Nc1ccccn1)(c1ccc(Br)cc1)c1ccc(Br)cc1` it was inactive: 1; in that of `CC(=O)NC(SC(=S)N(C)C)C(Cl)(Cl)Cl` (stereo unspecified), inactive: 1.

With `c1ccc(-c2nn[nH]n2)c(-c2nn[nH]n2)c1`, the activation fold was inactive: 1. `CCOC(=O)NC(Sc1ccccc1)C(Cl)(Cl)Cl` (stereo unspecified): the activation fold is inactive: 1. On to `O=C(NC1CCS(=O)(=O)C1)NP(=S)(Oc1ccccc1)Oc1ccccc1` (stereo unspecified), for which the activation fold was inactive: 1.2. Take `O=c1c2cc([N+](=O)[O-])ccc2[nH]c2c([N+](=O)[O-])cc([N+](=O)[O-])cc12`: the activation fold was inactive: 0.7. Next, `CCC(=O)N1C2C3N(C(=O)CC)C1C1N(C(=O)CC)C(C(N1C(=O)CC)N3C(=O)CC)N2C(=O)CC`: inactive: 1. Take `CC(=O)NC(SC(=S)N(CC(C)C)CC(C)C)C(Cl)(Cl)Cl` (stereo unspecified): the activation fold is inactive: 0.9.

For `CC(C)(C)C(=O)NC(Sc1ccccc1)C(Cl)(Cl)Cl` (stereo unspecified), the activation fold is inactive: 1. In the case of `CC(=O)Nc1ccc(Oc2c([N+](=O)[O-])cc([N+](=O)[O-])cc2[N+](=O)[O-])cc1` it was inactive: 1.

In the case of `Clc1ccc(Cl)c(NC2=NCC(CBr)S2)c1` (stereo unspecified), the activation fold is inactive: 1.3. With `NC(=O)c1cc([N+](=O)[O-])cc([N+](=O)[O-])c1N`, the activation fold is inactive: 1. Next, `O=C(NC(Sc1ccncn1)C(Cl)(Cl)Cl)c1ccccc1` (stereo unspecified): inactive: 1.2; `Cc1c2non([O-])c-2c(C)[n+](=O)[n+]1[O-]`: inactive: 1; `CC(C)CC(=O)NC(Sc1ccc(Cl)cc1)C(Cl)(Cl)Cl` (stereo unspecified): inactive: 0.9.

For the molecule `Cc1cc(SC(NC(=O)c2ccc(F)cc2)C(Cl)(Cl)Cl)ncn1` (stereo unspecified), the activation fold is inactive: 1. `CCOP(=O)(Nc1ccccc1)OCC`: the activation fold was inactive: 1. As for `CCN(N=Nc1nonc1N)c1nonc1N`, the activation fold was inactive: 1. Regarding `Cc1ccc(NP(=O)(Oc2ccccc2)Oc2ccccc2)nc1`, the activation fold is inactive: 1.

For the molecule `O=[N+]([O-])c1cc([N+](=O)[O-])c(CCNc2ccccc2)c([N+](=O)[O-])c1`, the activation fold was inactive: 1. With `CC(=O)N1C2C3N(C(C)=O)C1C1N(C(C)=O)C(C(N1C(C)=O)N3C(C)=O)N2C(C)=O`, the activation fold was inactive: 1. In the case of `COc1ccc(C2=NCC(CBr)S2)cc1` (stereo unspecified) it was inactive: 1. As to `CC1CCN(C(=O)Oc2c(Cl)cc(Cl)c3cccnc23)CC1`, the activation fold was inactive: 1.
